For data set [1], the system named is intracellular energy charge in liver and skeletal muscle. Put plainly: Tissue energetics and AMPK/ACC phosphorylation in liver and quadriceps. As to conditions: therapeutic dose; 5 day DNPME-treated rats. How it is done: Livers from rats sacrifice by decapitation were isolated within 15 seconds, and quadriceps muscle within 40 seconds. ˜50 mg of tissue were homogenized in a buffer of 50% methanol, 10 μM EDTA, 2 mM ammonium acetate, and 20 μM taurine-d4. Following a 20 minute spin at 20,000 rcf and 4° C., the supernatant was kept on ice for 20 min, then spun again at 16,000 rcf in filter tubes for 5 min. The flow-through was separated on a C18 5 μm 100 Å 4.6×100 mm column (Phenomenex, Torrance, CA) before ionization for multiple reaction monitoring (MRM) analysis by LC/MS/MS (Applied Biosystems/MDS SCIEX, 5000 Q-TRAP). Each analyte was eluted isocratically in 12 uM ammonium formate/5% methanol at a flow rate of 400 μl/min. Individual ion pairs were designated for each analyte, and the relative concentrations were determined by manual integration.

For data set [2], the system named is liver TCA cycle flux and pyruvate carboxylase flux. Put plainly: Hepatic flux rates ([3-13C] lactate infusion, NMR and LC/MS/MS). As to conditions: DNPME treated vs vehicle. How it is done:
To measure liver-specific flux through the TCA cycle, a steady-state infusion of [3-^13C] lactate (5 min prime 120 μmol/[kg-min], 115 min continuous infusion 40 μmol/[kg-min]) and [^3H] glucose (44 μmol/min) was performed. At 120 min, plasma and livers were isolated, and hepatic fluxes were measured by nuclear magnetic resonance (NMR) and LC/MS/MS.
To measure total glutamate enrichment from livers of rats infused with [3-^13C] lactate, ˜100 mg frozen liver were homogenized in 400 μL ice-cold 50% acetonitrile. The samples were centrifuged at 10,000 g for 10 min, and the supernatant was isolated. […]
Livers from rats infused with [3-^13C] lactate and [^3H] glucose were extracted with perchloric acid (Alves et al., 2011, Hepatology 53:1175-1181). Basal glucose turnover was measured (Maggs, 1998, Annals of Internal Medicine 128:176-185); as these rats were overnight fasted with low hepatic glycogen concentrations (FIG. 6P), all glucose production was presumed to be from gluconeogenesis. It was assumed that gluconeogenesis was 90% hepatic and 10% renal; from whole-body gluconeogenesis data, the absolute hepatic gluconeogenesis could then be calculated. […]
[formula] from the calculated VTCA, VPDH could be determined using this equation, and the contribution of fatty acid oxidation to the TCA cycle could be determined as the difference between VTCA and VPDH. […]

For data set [3], the system named is whole-cell brain preparations. Put plainly: Uncoupling in whole-cell brain preparations. In kind it is cell-based.
For the next data set, the system named is mice. Briefly: Metabolic cage (CLAMS) studies. As to conditions: 5 mg/kg per day IP. The procedure: Mice were studied during daily IP injections of 5 mg/kg DNPME or vehicle. Comprehensive Animal Metabolic Monitoring System (Columbus Instruments, Columbus, OH) was used to measure oxygen uptake and carbon dioxide production, daily caloric intake and energy expenditure, respiratory exchange ratio, and activity throughout the day.

In data set [4] the test system is Zucker Diabetic Fatty (ZDF) rats. Put plainly: 5 day treatment of Zucker Diabetic Fatty rats on high fat diet and sucrose water. The text has this:
Despite having no difference in body weight or white adipose tissue weight, and consistent with a primarily hepatic uncoupling effect and unchanged whole-body metabolism, DNPME treatment normalized fasting plasma glucose and triglyceride concentrations (FIGS. 3A-3C). […] To further test the hypothesis that DNPME treatment ameliorates hyperglycemia in a rat model of chronic type 2 diabetes, 5 day treatment studies on Zucker Diabetic Fatty (ZDF) rats concurrently fed high fat diet and sucrose water were performed.

For the next data set, the system named is rats. Briefly: Acute toxicity: rectal temperature and survival after IP injection.
The mark [5] stands for this setting: after DNPME 5 mg/kg intraperitoneal injection.
The mark [6] stands for this setting: acute, DNP at doses above 10 mg/kg, DNPME up to 200 mg/kg.

This is a selection: effects in other tests are not listed, and their absence says nothing.

As to `COc1ccc([N+](=O)[O-])cc1[N+](=O)[O-]`, in data set [1], the “ATP/AMP, ATP/ADP or NADH/NAD+ ratios in liver and skeletal muscle” value is “no differences”; the “phosphorylation of hepatic AMPK or acetyl CoA carboxylase (ACC)” value is “no differences”. Further, in data set [2], the “increase in rates of hepatic TCA flux” value is listed as 50% and the “reduction in hepatic pyruvate carboxylase flux” value amounted to 30%. The “time of peak plasma concentrations of DNP after injection” value (DNPME 5 mg/kg or DNP) was found to be 4 h. Also, under “DNPME treatment”, the “fold by which DNP concentrations are lower than toxic levels of DNP (380 μM)” value is recorded as “more than 75 fold”. Also, under “after DNPME 5 mg/kg”, the “DNP concentrations in all tissues” value is listed as “below 10 μM” and the “tissue distribution of DNPME” value is “accumulated in WAT but not any other tissue”. Further, under setting [5], the “peak liver DNP concentrations” value stood at 8 µM and the “peak plasma DNP concentrations” value came out at 5 µM. Further, the uncoupling result in data set [3] is “neither DNP nor DNPME was found to uncouple”. For the same molecule, the “whole body oxygen consumption, carbon dioxide production, energy expenditure, respiratory quotient, or activity” value with mice is “No effects”. Besides, in data set [4], the fasting plasma glucose result is “reductions”, the fasting plasma insulin entry is listed as “reductions”, the “liver or renal dysfunction” value is “no indication” and the liver triglyceride concentrations entry was “reductions”. For the same molecule, in the data set with rats (setting [6]), the “mortality acutely after IP injection” value is “no such effects” and the “rectal temperature after IP injection” value is reported as “no such effects”. Moreover, the “dose up to which no increase in rectal temperature or mortality occurred” value in the data set with rats (single IP injection) is given as “up to 200 mg/kg”.

The values above are taken from patent publication US12168639B2 (priority 2013, dated 2024).
